Broadly, the IC50 is the midpoint of a concentration-inhibition curve.

By UniProt entry, the sequences of proteins in these tests, tags left out. Residues count along the entry.
UniProt P35354, 18-604 limits assumed: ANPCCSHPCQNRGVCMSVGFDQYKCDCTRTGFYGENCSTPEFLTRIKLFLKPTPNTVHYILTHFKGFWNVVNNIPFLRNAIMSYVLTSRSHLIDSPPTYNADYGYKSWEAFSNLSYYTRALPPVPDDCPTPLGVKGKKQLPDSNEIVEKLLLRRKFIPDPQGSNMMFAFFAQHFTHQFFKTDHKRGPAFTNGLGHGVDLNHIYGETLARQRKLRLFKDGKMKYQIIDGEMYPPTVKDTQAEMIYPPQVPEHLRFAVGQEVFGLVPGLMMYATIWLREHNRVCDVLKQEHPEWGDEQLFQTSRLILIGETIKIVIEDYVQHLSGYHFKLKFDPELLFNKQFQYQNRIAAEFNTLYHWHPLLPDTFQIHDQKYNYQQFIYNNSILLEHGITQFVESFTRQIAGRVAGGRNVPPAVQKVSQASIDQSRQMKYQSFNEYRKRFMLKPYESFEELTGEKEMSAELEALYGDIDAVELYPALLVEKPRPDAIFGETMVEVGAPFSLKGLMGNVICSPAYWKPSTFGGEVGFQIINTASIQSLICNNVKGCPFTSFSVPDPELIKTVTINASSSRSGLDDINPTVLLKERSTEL
UniProt P35713, whole entry: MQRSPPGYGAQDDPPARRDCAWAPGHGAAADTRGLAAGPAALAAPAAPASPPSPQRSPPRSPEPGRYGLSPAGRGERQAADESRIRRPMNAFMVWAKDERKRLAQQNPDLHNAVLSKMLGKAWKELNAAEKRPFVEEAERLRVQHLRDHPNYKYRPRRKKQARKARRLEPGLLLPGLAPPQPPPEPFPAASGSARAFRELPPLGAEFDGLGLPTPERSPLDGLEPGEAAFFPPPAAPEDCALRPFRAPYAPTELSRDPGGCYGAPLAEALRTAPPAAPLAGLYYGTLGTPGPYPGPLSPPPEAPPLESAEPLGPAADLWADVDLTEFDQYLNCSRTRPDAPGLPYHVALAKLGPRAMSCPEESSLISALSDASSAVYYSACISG
UniProt P48436, whole entry: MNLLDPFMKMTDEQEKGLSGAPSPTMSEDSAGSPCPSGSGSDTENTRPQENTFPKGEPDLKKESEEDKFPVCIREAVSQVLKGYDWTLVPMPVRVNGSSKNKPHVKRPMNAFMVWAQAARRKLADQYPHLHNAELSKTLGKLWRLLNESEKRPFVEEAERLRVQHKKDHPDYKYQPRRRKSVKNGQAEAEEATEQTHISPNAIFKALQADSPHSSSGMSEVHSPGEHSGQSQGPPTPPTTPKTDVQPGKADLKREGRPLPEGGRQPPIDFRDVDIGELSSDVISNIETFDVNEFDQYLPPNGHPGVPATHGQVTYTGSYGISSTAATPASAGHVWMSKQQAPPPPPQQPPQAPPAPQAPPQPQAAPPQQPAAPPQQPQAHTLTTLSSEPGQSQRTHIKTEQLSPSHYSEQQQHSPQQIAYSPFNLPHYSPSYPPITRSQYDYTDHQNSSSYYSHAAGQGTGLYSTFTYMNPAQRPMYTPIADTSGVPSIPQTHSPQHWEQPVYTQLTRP
UniProt F1N1F9, 1-410: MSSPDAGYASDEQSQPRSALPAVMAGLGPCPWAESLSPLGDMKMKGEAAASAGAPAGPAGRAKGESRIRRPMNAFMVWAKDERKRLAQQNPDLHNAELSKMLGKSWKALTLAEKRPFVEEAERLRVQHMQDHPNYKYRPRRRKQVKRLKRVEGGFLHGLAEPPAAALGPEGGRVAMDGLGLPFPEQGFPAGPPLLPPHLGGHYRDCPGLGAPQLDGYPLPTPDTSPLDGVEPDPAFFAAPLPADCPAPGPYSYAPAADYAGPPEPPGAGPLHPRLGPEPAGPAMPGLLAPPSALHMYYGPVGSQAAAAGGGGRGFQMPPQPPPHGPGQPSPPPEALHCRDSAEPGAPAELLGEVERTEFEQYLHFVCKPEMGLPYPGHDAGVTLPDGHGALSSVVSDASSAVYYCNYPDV

The text below walks through data of patent US20240002326A1, “COMPOUNDS AND USE THEREOF IN METHODS OF TREATMENT” (The University of Queensland, priority 2016, published 2024).

One series concerns the target human COX2 (Homo sapiens (Human), UniProt P35354). In words: COX2 enzymatic assay. The note with it: up to a concentration of 200 μM.
A further series has as its target SOX18-RBPJ interaction (Homo sapiens (Human), UniProt P35713). In words: ALPHAScreen SOX18-RBPJ protein-protein interaction. For orientation: Bead proximity is the source of the signal in Alpha formats.
The next series deals with SOX18-MEF2C interaction (Homo sapiens (Human), UniProt P35713). In words: ALPHAScreen SOX18-MEF2C protein-protein interaction.
The next series has as its target SOX18-SOX18 homodimer (Homo sapiens (Human), UniProt P35713). In words: ALPHAScreen SOX18-SOX18 homodimerization. The following applies: 5 uM.
In another series the target is SOX18 (Homo sapiens (Human), UniProt P35713). Briefly: SOX18 single molecule tracking in Hela cells. It is filed as cell-based. The source says:
FIG. 24B depicts the experimental workflow, which involves bi-dimensional tracking of molecule trajectory and analysis using MATLAB, as outlined in Chen et al. (Cell 156, 1274-1285; 2014). We note that the immobile DNA bound fraction (%, shown in pie graphs) is of two types, specific and non-specific, depending on the dwelling time in one same DNA position; if of a short time (less than 1 second average) this is considered to be non-specific binding (i.e., transient binding to random DNA sites), and if of a long time (greater than 5-6 seconds average) this is considered to be specific binding (i.e., longer binding to target DNA sites with transcriptional effect). The dwell times of immobile DNA bound fractions (shown as bar graphs) is also of two types, specific and non-specific: The length of time in seconds that SOX18 molecules bind to DNA non-specifically (on average less than 1 second) or specifically (on average greater than 5-6 seconds). Single molecule tracking is performed after transfection of Hela cells with a SOX18-Halotag reporter construct. This expression vector enables us to detect single molecule of SOX18 protein upon addition of a ligand which becomes fluorescent after enzymatic processing by the Halotag system. Real time imaging is performed using a modified version of TIRF microscopy (HiLo) using a ZEISS ELYRA super-resolution microscope.

In series [1] the test system is SOX18 overexpressing HUVECs. Briefly: RNA-seq / ChIP-seq distance-to-TSS analysis in SOX18 overexpressing HUVECs. It is filed as cell-based, human. The note with it: 25 μM Sm4, HUVECs. The method, then:
Following IP, DNA amplification was performed using TruSeq ChIPseq kit (Illumina, IP-202-1012), using 0.5 μM of the universal reverse PCR primer and the forward PCR primer containing the index sequence of choice in 50 μL 1×NEBNext High-Fidelity PCR Master Mix (New England Biolabs, M0541). The number of PCR cycles ranged from 13 to 18, depending on the ChIP efficiency. The PCR product was purified using AMPure beads (1.8 volume) and eluted in 20 μL of resuspension buffer (Tris-Acetate 10 mM pH 8). The library was quantified using the KAPA library quantification kit for Illumina sequencing platforms (KAPA Biosystems, KK4824) and 50 bp single end reads were sequenced on a HiSeq2500 following the manufacturer's protocol. Illumina fastq files were mapped to the GRCh37/UCSC hg19 genome assembly using bowtie, and peaks were called using MACS version 2.1.0. using input. […]
Quadruplicate samples were processed for whole transcriptome sequencing using TruSeq stranded total RNA library prep kit (Illumina). Reads were mapped to the hg19 reference human genome using STAR aligner (Dobin et al. 2013), and only uniquely aligned reads were considered. Transcripts were assigned to genes using htseq_count (HTseq package) (Anders, Pyl, and Huber 2015), and differential expression was calculated using DEseq2 (Love, Huber, and Anders 2014). […]

The next series concerns the target SOX9 (Homo sapiens (Human), UniProt P48436). In words: Cell based reporter assay for SOX9 activity (Col2a1:luc, COS-7). The following applies: any tested concentration (≤50 μM). (In general: Reporter assays use an easily measured gene product as a stand-in for the process of interest.)
In another series the target is SOX17 (Bos taurus, UniProt F1N1F9). Briefly: Cell based reporter assay for SOX17 activity (ECE1-TK-β-gal, BAECs). The following applies: any tested concentration (≤50 μM).

`O=C(O)c1c(O)cccc1CCc1ccc2ccccc2c1`: on human COX2, the COX-2 inhibitory activity result is listed as “None of the SOX18 inhibitor display any COX-1 or COX-2 inhibitory activity”. In addition, the “SOX18-RBPJ protein-protein binding inhibition at 5 μM” value on SOX18-RBPJ interaction (5 μM) is “marginal”. For the same compound, the “SOX18-RBPJ protein-protein binding inhibition at 50 μM” value at SOX18-RBPJ interaction (50 μM, printed for almost complete inhibition (remaining interaction)) was 11.9±5.6%. Further, on SOX18-RBPJ interaction (ALPHAScreen), the “effect on SOX18-RBPJ interaction (PPI)” value was “inhibit both DNA and PPI”. Besides, at SOX18-RBPJ interaction (read-out: SOX18-RBPJ interaction disruption IC50, ALPHAScreen), the IC50 came out at 42.3 µM. For the same compound, the “effect on SOX18-MEF2C interaction” value at SOX18-MEF2C interaction is “no effect”. Further, on SOX18-SOX18 homodimer, the “inhibitory activity in respect of SOX18-SOX18 homodimerization” value is “some inhibitory activity”. Also, on SOX18, the SOX18 dwell time entry is given as “increases the dwell time of the specifically bound SOX18 fraction”. The “SOX18 chromatin bound fraction” value on SOX18 (concentration-dependent) is recorded as “increases SOX18 specific bound fraction”. Moreover, in series [1], the “SOX18 peaks closer to TSS of Sm4 down-regulated genes than to random TSSs” value turned out to be 3.6 fold and the “TSS of Sm4 down-regulated genes closer to c-JUN binding events” value was determined as 2.05 fold. In addition, the “transcriptional activity of SOX9” value at SOX9 is recorded as “did not affect”. Further, the “transcriptional activity of SOX17” value at SOX17 is “did not affect”.
